Calls of active or inactive are those of the source. For most assays here, no stated cut-off is given here; in the data, actives have a measured Kd and inactives only a lower limit.
What was measured:
[1] = target: Protein kinase C alpha type (Homo sapiens, UniProt P17252)
[2] = target: Non-receptor tyrosine-protein kinase TYK2 (Homo sapiens, UniProt P29597)
[3] = target: BMP-2-inducible protein kinase (Homo sapiens, UniProt Q9NSY1)
[4] = target: Myosin light chain kinase, smooth muscle (Homo sapiens, UniProt Q15746)
[5] = target: Proto-oncogene tyrosine-protein kinase Src (Homo sapiens, UniProt P12931)
[6] = target: Proto-oncogene tyrosine-protein kinase receptor Ret (Homo sapiens, UniProt P07949)

The chains behind the UniProt entries cited, without tags or fusion partners. Where a name states a change or a piece, a line headed by the entry shows the natural chain unless it says otherwise.
UniProt P29597: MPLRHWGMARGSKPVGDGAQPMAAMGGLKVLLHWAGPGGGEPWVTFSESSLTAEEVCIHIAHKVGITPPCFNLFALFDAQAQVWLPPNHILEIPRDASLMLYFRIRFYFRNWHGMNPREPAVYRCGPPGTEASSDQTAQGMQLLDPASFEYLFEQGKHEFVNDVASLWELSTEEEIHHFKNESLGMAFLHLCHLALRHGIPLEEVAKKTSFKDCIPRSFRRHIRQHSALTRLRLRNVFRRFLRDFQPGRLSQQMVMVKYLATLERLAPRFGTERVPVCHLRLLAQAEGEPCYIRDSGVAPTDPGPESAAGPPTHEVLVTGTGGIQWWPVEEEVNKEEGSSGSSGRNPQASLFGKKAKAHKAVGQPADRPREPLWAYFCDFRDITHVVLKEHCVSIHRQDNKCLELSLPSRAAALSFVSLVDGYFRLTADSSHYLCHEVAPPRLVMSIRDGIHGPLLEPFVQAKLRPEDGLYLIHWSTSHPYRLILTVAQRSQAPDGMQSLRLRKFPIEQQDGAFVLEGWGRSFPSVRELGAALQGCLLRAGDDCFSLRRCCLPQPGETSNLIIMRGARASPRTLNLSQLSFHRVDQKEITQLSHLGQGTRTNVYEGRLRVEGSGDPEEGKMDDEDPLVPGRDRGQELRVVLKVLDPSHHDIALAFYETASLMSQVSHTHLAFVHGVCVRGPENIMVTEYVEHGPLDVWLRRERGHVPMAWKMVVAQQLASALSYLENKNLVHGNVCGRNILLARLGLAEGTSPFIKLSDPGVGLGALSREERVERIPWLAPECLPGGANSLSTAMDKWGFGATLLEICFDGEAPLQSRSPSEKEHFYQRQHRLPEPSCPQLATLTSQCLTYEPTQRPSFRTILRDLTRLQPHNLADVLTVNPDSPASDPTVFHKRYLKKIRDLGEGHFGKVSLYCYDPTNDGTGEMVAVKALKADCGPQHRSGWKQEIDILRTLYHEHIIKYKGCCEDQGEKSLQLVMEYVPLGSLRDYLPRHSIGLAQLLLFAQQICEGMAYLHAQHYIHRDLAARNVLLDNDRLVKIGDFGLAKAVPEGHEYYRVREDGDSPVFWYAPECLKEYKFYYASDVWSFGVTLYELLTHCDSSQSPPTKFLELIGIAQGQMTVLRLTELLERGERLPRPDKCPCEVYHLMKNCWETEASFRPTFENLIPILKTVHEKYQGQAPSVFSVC
UniProt Q9NSY1, whole entry: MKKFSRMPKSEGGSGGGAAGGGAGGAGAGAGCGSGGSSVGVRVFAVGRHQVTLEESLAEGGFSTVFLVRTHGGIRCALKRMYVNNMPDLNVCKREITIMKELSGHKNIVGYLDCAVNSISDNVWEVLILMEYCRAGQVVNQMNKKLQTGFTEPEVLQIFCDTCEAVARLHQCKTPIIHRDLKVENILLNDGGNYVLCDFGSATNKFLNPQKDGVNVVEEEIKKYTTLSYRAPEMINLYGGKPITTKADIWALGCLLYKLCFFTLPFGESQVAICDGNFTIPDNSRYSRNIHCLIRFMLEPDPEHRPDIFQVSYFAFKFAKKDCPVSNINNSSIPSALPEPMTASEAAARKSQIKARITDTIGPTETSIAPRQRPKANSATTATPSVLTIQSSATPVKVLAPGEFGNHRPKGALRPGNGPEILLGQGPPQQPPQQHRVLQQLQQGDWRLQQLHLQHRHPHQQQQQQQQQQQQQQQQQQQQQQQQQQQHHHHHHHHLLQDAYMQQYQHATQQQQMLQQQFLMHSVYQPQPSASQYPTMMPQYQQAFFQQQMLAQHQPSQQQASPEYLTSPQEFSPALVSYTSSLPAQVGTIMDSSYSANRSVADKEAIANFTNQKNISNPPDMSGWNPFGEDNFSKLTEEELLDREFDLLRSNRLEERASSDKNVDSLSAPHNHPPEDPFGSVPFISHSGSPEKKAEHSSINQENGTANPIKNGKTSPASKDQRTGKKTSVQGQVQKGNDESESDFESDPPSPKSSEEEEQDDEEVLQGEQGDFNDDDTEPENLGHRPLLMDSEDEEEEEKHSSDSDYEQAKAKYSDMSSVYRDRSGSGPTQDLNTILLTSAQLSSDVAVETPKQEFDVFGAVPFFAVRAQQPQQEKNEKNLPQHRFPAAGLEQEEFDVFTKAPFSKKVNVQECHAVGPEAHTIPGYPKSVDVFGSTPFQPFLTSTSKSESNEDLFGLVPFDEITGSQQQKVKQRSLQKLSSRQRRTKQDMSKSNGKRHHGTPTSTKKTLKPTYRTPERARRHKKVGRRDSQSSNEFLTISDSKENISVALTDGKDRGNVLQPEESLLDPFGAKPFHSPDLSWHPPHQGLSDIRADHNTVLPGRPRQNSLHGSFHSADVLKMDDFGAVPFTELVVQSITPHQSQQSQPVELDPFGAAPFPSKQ
UniProt Q15746, whole entry: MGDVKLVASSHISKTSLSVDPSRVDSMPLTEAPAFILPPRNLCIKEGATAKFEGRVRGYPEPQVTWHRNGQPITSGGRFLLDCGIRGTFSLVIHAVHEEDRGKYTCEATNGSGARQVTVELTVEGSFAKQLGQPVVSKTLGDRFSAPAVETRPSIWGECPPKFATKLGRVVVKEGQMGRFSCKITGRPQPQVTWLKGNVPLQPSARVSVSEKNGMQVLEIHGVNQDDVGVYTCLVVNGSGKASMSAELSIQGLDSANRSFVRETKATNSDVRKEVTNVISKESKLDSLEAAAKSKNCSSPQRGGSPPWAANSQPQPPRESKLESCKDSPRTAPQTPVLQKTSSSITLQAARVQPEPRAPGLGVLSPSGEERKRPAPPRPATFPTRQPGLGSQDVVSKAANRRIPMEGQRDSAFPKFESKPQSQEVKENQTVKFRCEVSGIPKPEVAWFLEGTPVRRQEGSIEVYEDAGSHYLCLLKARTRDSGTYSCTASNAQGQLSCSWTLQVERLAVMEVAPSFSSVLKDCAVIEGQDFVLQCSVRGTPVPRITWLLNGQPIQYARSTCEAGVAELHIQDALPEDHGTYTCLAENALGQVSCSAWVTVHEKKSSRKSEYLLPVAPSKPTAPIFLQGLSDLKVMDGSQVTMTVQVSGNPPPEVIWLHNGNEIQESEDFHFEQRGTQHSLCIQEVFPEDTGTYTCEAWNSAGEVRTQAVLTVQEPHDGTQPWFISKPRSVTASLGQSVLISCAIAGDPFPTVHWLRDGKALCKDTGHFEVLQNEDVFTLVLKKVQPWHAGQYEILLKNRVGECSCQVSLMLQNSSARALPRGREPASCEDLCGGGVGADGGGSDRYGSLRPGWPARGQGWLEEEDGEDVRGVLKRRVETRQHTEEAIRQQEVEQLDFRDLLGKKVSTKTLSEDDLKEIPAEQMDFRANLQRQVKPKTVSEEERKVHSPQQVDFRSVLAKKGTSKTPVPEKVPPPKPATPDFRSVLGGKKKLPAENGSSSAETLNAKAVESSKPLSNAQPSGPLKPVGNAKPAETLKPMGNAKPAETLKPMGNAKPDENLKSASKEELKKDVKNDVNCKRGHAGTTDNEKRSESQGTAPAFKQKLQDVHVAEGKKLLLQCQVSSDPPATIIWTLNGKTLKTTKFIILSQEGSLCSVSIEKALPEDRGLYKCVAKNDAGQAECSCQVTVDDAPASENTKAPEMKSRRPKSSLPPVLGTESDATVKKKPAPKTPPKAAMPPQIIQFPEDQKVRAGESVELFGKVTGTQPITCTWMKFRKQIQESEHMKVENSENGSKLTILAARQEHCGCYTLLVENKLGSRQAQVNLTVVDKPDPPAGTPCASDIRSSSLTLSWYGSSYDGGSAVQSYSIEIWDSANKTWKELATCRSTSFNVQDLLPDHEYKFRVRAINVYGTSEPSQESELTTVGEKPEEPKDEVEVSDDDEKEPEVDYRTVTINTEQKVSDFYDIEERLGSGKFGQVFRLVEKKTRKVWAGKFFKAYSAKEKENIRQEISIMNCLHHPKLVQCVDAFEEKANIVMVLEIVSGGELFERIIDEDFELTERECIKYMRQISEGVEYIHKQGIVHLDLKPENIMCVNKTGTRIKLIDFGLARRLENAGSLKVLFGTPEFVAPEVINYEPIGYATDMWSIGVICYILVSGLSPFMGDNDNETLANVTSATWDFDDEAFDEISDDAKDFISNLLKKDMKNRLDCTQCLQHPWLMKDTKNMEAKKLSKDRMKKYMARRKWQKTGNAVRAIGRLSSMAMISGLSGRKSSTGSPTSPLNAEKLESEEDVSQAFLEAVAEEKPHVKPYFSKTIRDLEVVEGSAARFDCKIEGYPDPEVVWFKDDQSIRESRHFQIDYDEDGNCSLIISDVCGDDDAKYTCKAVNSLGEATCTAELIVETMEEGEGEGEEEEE
UniProt P12931: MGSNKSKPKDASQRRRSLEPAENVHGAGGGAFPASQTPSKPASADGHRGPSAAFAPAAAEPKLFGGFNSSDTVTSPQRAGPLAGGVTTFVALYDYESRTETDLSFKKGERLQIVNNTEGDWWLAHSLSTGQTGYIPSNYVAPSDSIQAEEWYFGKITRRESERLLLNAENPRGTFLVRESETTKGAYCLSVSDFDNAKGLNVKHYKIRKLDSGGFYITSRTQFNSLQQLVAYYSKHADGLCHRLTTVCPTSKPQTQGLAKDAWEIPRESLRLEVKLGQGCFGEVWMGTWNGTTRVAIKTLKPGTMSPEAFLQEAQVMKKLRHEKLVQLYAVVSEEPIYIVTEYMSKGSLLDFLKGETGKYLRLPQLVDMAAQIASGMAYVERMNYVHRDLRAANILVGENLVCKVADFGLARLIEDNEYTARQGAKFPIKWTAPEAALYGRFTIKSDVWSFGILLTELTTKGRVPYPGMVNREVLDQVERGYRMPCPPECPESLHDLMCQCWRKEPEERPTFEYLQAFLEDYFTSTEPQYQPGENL
UniProt P07949, whole entry: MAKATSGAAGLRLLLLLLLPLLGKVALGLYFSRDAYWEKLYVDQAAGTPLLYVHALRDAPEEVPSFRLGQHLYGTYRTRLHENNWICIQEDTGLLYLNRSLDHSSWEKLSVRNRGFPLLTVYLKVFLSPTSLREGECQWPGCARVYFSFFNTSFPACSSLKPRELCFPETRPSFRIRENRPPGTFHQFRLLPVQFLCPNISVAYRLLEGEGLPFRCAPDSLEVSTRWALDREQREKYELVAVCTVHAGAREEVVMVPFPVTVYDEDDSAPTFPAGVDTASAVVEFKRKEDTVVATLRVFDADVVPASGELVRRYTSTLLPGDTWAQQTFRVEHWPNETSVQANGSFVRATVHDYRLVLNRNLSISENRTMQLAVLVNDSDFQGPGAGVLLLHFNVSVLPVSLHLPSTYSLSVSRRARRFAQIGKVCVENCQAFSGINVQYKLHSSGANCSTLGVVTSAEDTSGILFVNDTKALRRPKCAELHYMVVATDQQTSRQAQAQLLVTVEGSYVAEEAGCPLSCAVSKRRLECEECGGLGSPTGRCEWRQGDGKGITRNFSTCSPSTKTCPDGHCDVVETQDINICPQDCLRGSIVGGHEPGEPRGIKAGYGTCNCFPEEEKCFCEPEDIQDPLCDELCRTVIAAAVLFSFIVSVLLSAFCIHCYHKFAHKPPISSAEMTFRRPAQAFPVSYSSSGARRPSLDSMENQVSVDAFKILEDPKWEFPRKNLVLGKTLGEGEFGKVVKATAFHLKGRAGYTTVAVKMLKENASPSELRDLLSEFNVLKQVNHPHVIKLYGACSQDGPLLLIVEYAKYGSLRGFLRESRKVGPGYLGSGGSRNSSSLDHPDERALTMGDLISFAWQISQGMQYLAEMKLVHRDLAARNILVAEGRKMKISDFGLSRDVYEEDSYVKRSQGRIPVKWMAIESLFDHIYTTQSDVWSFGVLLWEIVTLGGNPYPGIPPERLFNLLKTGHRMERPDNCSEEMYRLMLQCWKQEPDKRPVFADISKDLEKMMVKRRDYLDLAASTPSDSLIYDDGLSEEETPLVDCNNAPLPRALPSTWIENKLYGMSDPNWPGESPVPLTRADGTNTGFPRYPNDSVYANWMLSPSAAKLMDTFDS

O=S(=O)(c1cccc2c(O)nccc12)N1CCCNCC1 [HYDROXYFASUDIL]
Kd [1]: inactive: > 30 µM

O=C(Nc1nc2cccc(-c3ccc(CN4CCS(=O)(=O)CC4)cc3)n2n1)C1CC1 [FILGOTINIB]
Kd [2]: inactive: > 30 µM

CC[C@@](C)(Nc1ccnc(-c2c[nH]c3ncccc23)n1)C(=O)NCC(F)(F)F [DECERNOTINIB]
Kd [2]: inactive: > 30 µM

CCS(=O)(=O)N1CC(CC#N)(n2cc(-c3ncnc4[nH]ccc34)cn2)C1 [BARICITINIB]
Kd [3]: active: 0.216 µM

COC(=O)[C@@]1(O)C[C@H]2O[C@]1(C)n1c3ccccc3c3c4c(c5c6ccccc6n2c5c31)C(=O)NC4 [K-252A]
Kd [4]: inactive: > 30 µM

O=C(Nc1c[nH]nc1-c1nc2cc(CN3CCOCC3)ccc2[nH]1)NC1CC1 [AT-9283]
Kd [5]: active: 0.592 µM

CNC(=O)c1cc(Oc2ccc(NC(=O)Nc3ccc(Cl)c(C(F)(F)F)c3)c(F)c2)ccn1 [REGORAFENIB]
Kd [6]: active: 0.126 µM
